Test results taken from ChEMBL document CHEMBL4371059 (J Med Chem, 2019).

The chains behind the UniProt entries cited, without tags or fusion partners. Where a name states a change or a piece, a line headed by the entry shows the natural chain unless it says otherwise.
UniProt P41145: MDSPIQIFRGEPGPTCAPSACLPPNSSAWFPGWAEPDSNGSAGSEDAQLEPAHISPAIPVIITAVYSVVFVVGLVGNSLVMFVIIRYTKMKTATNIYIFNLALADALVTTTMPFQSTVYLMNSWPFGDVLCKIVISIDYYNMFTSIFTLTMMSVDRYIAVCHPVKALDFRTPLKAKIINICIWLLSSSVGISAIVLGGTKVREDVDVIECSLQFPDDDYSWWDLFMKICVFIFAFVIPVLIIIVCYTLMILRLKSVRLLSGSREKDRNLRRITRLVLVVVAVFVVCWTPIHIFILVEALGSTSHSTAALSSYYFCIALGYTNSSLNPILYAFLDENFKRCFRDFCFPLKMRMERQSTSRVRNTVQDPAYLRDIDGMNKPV
UniProt P41144: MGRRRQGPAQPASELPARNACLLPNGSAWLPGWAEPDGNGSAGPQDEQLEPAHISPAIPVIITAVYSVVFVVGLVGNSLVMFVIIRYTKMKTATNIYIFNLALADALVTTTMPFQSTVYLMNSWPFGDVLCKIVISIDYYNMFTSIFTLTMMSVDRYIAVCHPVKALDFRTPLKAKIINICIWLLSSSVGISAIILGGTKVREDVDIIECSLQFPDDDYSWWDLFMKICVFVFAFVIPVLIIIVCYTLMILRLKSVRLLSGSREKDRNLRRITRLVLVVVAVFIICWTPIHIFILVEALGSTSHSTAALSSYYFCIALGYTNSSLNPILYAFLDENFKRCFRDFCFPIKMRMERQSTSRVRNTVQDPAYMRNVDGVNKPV
UniProt P33533, whole entry, looked up: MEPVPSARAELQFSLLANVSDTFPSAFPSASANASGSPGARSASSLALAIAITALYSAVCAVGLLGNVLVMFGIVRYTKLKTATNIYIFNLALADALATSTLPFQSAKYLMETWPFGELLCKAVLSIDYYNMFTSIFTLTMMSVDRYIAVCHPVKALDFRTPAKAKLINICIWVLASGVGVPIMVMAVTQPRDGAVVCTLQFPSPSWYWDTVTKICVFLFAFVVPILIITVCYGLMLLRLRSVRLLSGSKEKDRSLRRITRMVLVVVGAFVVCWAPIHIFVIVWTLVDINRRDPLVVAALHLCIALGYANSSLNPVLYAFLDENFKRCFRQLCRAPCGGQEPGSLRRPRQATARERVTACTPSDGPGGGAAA
UniProt P97266, whole entry, looked up: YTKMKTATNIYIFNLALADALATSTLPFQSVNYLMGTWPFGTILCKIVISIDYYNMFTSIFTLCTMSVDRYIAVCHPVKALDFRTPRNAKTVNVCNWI
UniProt Q60492, whole entry, looked up: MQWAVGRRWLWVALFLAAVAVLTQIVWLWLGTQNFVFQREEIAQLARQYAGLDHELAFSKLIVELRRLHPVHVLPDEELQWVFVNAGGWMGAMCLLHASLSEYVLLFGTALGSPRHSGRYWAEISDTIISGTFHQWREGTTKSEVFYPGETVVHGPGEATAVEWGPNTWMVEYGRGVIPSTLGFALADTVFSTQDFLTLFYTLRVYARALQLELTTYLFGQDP

Columns and labels:
[1] = molecular target: Kappa-type opioid receptor (Homo sapiens, UniProt P41145)
[2] = molecular target: Kappa-type opioid receptor (Cavia porcellus, UniProt P41144); assay: Displacement of [3H]U-69,593 from KOR in guinea pig brain membranes after 120 mins by scintillation counting method
[3] = molecular target: Delta-type opioid receptor (Rattus norvegicus, UniProt P33533); assay: Displacement of [3H]DPDPE from DOR in Sprague-Dawley rat brain membranes after 120 mins by scintillation counting method; details: strain Sprague-Dawley
[4] = molecular target: Mu-type opioid receptor (Cavia porcellus, UniProt P97266); assay: Displacement of [3H]DAMGO from MOR in guinea pig brain membranes after 120 mins by scintillation counting method
[5] = molecular target: Sigma non-opioid intracellular receptor 1 (Cavia porcellus, UniProt Q60492)

Structure (SMILES): CCN1CCN(C(=O)Cc2ccc(Cl)c(Cl)c2)[C@H]2[C@@H]1CCC[C@@H]2N1CCCC1
- Ki [1]: 11 nM
- Ki [2]: 4.2 nM
- Ki [3]: 1100 nM
- Ki [4]: 3300 nM

Structure (SMILES): CC(C)(C)OC(=O)N1CCN(C(=O)Cc2ccc(Cl)c(Cl)c2)[C@@H]2[C@@H](N3CCCC3)CCC[C@@H]21
- Ki [1]: 18 nM
- Ki [4]: 260 nM

Structure (SMILES): O=C(Cc1ccc(Cl)c(Cl)c1)N1CCN[C@H]2CCC[C@H](N3CCCC3)[C@H]21
- Ki [1]: 4.8 nM
- Ki [2]: 0.54 nM
- Ki [3]: 205 nM

Structure (SMILES): CCCCN1CCN(C(=O)Cc2ccc(Cl)c(Cl)c2)[C@@H]2[C@@H](N3CCCC3)CCC[C@@H]21 (racemic)
- Ki [1]: 16 nM
- Ki [2]: 6.6 nM
- Ki [5]: 876 nM
- Ki [3]: 2500 nM
- Ki [4]: 2600 nM

Structure (SMILES): O=C(Cc1ccc(Cl)c(Cl)c1)N1CCN(C(=O)Cn2cc(CCCF)nn2)[C@H]2CCC[C@H](N3CCCC3)[C@H]21
- Ki [2]: 3.3 nM
- Ki [3]: 425 nM
- Ki [4]: 947 nM

Structure (SMILES): CCCN1CCN(C(=O)Cc2ccc(Cl)c(Cl)c2)[C@@H]2[C@@H](N3CCCC3)CCC[C@@H]21 (racemic)
- Ki [1]: 9.2 nM
- Ki [2]: 1.4 nM
- Ki [5]: 1800 nM
- Ki [3]: 992 nM
- Ki [4]: 407 nM

Structure (SMILES): O=C(Cc1ccc(Cl)c(Cl)c1)N1CCN(Cc2cn(CCF)nn2)[C@H]2CCC[C@H](N3CCCC3)[C@H]21
- Ki [4]: 573 nM

Structure (SMILES): O=C(Cc1ccc(Cl)c(Cl)c1)N1CCN(Cc2ccc(F)cc2)[C@H]2CCC[C@H](N3CCCC3)[C@H]21
- Ki [1]: 42 nM
- Ki [2]: 81 nM
- Ki [5]: 1600 nM
- Ki [3]: 397 nM

Structure (SMILES): CN1CCN(C(=O)Cc2ccc(Cl)c(Cl)c2)[C@H]2[C@@H]1CCC[C@@H]2N1CCCC1
- Ki [1]: 11 nM
- Ki [2]: 2.3 nM
- Ki [3]: 333 nM

Structure (SMILES): O=C(Cc1ccc(Cl)c(Cl)c1)N1CCN(CCCCF)[C@H]2CCC[C@H](N3CCCC3)[C@H]21
- Ki [2]: 8 nM

Structure (SMILES): O=C(Cc1ccc(Cl)c(Cl)c1)N1CCN(CCF)[C@H]2CCC[C@H](N3CCCC3)[C@H]21
- Ki [2]: 2.2 nM

Structure (SMILES): O=C(Cc1ccc(Cl)c(Cl)c1)N1CCN(C(=O)COCCF)[C@H]2CCC[C@H](N3CCCC3)[C@H]21
- Ki [1]: 77 nM
- Ki [2]: 15 nM
- Ki [3]: 1100 nM
